For one compound, bacteriostatic activity results are on record in patent publication US3989598A (priority 1962, dated 1976).

Structures are written as SMILES.

The assay relates to numerous bacteria, certain of which are resistant to antibiotics. The experiment in a line: bacteriostatic activity, dilution methods (summary of Table VI). It is filed as cell-based. As to conditions: certain bacteria resistant to one or more antibiotics. The text has this: For each organism, the lowest concentration of substance has been determined which, under the defined condition, prevents all visible development in an appropriate nutritive broth. The results of various determinations are shown in Table VI, wherein the minimal bacteriostatic concentrations are expressed as micrograms of substance per cubic centimeter of experimental medium.

Regarding `COc1cccc2c1C(=O)c1c(O)c3c(c(O)c1C2=O)C[C@@](O)(C(C)=O)C[C@@H]3O[C@H]1C[C@H](N)[C@H](O)[C@H](C)O1` [13057 RP daunorubicin, daunorubicin], the bacteriostatic activity result is “exerted against numerous bacteria”.
